According to PMC7666139, “HACS1 signaling adaptor protein recognizes a motif in the paired immunoglobulin receptor B cytoplasmic domain” (Communications Biology, 2020):

Legend:
[1] = target: T1, 6xHis/Flag-tagged human SHP2 N-SH2 domain (human, UniProt Q06124 1-107); assay: SPR; biotinylated phosphopeptide on a streptavidin gold sensor chip (OpenSPR); analyte 20 µM to 0.1 µM in 10 mM Tris-HCl, 100 mM NaCl, pH 7.4, 0.1% bovine serum albumin, 0.005% Tween-20, 0.05% NaN3; 40 µL/min; 1:1 interaction model; settings: both partners purified
T1 construct: human SHP2 phosphatase, N-SH2 domain, aa; 1-107; Gene synthesized; also called SHP2 SH2-N; SHP2 SH2(N) domain; source: E. coli, purified (Nickel-NTA, gel filtration)
T1 sequence (looked up): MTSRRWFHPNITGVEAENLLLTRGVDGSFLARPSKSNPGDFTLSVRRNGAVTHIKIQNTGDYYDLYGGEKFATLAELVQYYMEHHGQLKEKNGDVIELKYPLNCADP

[2] = target: T2, 6xHis-tagged HACS1 SH3 domain (human, UniProt Q9NSI8 163-224); assay: as above; settings: both partners purified
T2 construct: human HACS1 SH3 domain, codon-optimized synthetic gene; Gene synthesized, in a pD441NH expression vector (ATUM); 15N-labelled in the NMR experiments; Minimal folded SH3 domain is 168-222 by the NMR structure; also called HACS SH3 domain; 6xHis-tagged SH3 domain; source: E. coli, purified (Nickel-NTA, gel filtration)

- Kd [1]: 7.4 µM
- koff [1]: 0.05 s⁻¹
- kon [1]: 6800 M⁻¹ s⁻¹
- koff [2]: 0.037 s⁻¹
- kon [2]: 2400 M⁻¹ s⁻¹
B1: biotinylated murine PIRB derived phosphopeptide (peptide)
peptide: GGQDVTYAQLCSRTLRQGAAAS
modifications: phosphotyrosine ({pY}, residue 7 of the printed peptide); biotin (position not given)
notes: The leading GG may be a spacer and not part of PIRB; also called murine PIRB phospho-ITIM3 peptide; source: synthetic peptide (Genscript)
